Data from ChEMBL document CHEMBL5728890, “HDAC6 inhibitors and imaging agents” (2021).

Sequences of proteins named here, by UniProt entry; tags and fusion partners are left off. A change or cut given only in a name is not applied to a line headed by its entry.
UniProt Q92769, whole entry: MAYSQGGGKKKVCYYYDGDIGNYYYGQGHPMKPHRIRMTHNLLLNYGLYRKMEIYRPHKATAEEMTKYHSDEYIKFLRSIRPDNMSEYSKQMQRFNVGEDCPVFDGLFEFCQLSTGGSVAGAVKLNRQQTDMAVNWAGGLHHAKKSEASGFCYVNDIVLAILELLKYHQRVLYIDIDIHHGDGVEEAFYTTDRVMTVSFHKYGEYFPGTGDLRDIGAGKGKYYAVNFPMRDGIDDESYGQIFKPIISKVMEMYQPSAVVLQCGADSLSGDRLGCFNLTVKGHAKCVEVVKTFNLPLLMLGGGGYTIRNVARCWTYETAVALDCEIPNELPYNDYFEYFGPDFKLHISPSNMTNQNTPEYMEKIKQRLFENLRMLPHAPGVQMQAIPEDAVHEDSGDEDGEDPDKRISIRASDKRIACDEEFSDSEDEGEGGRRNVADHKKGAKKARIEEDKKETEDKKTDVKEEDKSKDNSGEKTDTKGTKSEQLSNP
UniProt P56524: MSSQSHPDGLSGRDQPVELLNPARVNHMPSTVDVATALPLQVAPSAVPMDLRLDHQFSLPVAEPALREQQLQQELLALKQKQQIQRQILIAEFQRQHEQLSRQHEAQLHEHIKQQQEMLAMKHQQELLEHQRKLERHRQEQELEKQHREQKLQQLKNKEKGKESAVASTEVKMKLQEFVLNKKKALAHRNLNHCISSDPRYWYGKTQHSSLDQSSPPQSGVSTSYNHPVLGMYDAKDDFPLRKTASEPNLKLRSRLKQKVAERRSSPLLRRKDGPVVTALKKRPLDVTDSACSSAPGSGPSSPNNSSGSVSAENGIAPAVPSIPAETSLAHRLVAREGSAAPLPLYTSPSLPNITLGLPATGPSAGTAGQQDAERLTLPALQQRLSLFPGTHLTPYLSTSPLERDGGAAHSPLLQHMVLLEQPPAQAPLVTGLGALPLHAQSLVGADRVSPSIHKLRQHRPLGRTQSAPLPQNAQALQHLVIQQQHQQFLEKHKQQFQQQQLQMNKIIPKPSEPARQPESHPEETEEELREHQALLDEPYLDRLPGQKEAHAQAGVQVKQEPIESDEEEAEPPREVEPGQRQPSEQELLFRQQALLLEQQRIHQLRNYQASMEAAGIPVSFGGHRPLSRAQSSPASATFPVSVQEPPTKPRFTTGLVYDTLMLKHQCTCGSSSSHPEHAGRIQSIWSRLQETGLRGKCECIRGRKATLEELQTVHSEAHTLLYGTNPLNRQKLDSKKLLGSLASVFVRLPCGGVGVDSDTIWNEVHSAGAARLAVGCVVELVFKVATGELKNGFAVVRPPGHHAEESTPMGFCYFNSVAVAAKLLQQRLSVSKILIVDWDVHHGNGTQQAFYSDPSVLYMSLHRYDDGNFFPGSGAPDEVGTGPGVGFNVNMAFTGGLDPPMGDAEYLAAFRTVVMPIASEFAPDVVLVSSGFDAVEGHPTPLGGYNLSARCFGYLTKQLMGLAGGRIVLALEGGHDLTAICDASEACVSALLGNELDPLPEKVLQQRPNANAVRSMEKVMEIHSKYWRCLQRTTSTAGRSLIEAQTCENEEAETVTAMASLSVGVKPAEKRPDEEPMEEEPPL

Assays:
Histone deacetylase 2 = Histone deacetylase 2 (Homo sapiens, UniProt Q92769)
Histone deacetylase 4 = Histone deacetylase 4 (Homo sapiens, UniProt P56524); test: IC50 Assay: IC50 measurements were conducted by BPS Biosciences (Table 1) or by Nanosyn (Table 1A) with an established fluorescence assay.

IC50 (Histone deacetylase 4) [nM] | Compound | IC50 (Histone deacetylase 2) [nM]
– | CN(Cc1ccc(/C=C/C(=O)NO)cc1F)CC12CC3CC(CC(C3)C1)C2 | 73
> 30 | CN1CCc2c(c3ccccc3n2Cc2ccc(C(=O)NO)cc2)C1 [TUBASTATIN A] | –
